The values below come from BindingDB's records for doi:10.1074/jbc.M109.067967 (University of Michigan, 2010).

Sequences of proteins named here, by UniProt entry; tags and fusion partners are left off. Residues count along the entry.
UniProt P22777, 23-402 limits assumed: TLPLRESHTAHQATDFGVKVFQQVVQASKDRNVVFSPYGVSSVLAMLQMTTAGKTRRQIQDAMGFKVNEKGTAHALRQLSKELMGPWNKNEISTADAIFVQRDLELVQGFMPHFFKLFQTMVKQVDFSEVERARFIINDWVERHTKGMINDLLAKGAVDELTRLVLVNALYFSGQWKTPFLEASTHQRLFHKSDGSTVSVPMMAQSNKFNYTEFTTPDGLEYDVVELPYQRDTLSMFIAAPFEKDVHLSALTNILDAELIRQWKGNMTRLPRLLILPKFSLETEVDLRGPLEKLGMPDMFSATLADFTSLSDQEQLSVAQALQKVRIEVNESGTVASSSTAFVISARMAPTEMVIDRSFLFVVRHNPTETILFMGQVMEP

Each structure is given as a SMILES string.

This experiment concerns the target Plasminogen activator inhibitor 1 (Mus musculus, UniProt P22777). Briefly: Enzymatic Assay. Conditions: pH 7.8; 23 °C.

The term IC50 denotes the point on the concentration scale where inhibition reaches its midpoint. Low readings indicate higher potency, high ones lower potency. `O=C(OC[C@H]1OC(OC(=O)c2cc(O)c(O)c(O)c2)[C@H](OC(=O)c2cc(O)c(O)c(O)c2)[C@@H](OC(=O)c2cc(O)c(O)c(O)c2)[C@H]1OC(=O)c1cc(O)c(O)c(O)c1)c1cc(O)c(O)c(O)c1` (stereo partly specified) [CDE-066]: half-maximal inhibition (IC50) was put at 10 nM.
